# Laboratory results published in patent US8933229B2, “8-azabicyclo[3.2.1]octane-8-carboxamide derivative” (Sumitomo Dainippon Pharma Co., Ltd., priority 2009, dated 2015).
# Amino acid sequences for entries named in this document (tags omitted).
# UniProt P50172, whole entry: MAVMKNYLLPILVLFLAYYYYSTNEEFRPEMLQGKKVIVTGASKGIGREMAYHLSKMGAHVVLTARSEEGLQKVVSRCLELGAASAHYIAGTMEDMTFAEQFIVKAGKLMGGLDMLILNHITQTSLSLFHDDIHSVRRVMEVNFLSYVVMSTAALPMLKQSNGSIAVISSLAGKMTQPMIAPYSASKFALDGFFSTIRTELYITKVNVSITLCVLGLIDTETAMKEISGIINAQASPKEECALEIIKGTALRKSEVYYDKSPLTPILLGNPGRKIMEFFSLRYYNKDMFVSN
# UniProt P28845, whole entry: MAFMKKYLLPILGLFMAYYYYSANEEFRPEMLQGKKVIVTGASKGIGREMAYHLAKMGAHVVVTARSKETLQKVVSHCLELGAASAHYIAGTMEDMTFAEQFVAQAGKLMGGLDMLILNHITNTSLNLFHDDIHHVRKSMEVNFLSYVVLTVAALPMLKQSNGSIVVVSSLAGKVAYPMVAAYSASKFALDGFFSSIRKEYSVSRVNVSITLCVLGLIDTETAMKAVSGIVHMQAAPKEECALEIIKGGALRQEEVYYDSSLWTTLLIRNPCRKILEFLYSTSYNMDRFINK
# How the values were obtained:
# [1] = biological target: cortisone reductase of mouse adipose cell (11βHSD1) (Mus musculus, UniProt P50172); assay: Inhibitory activity assay against cortisone reductase of mouse primary adipocytes; settings: read-out: IC50 against cortisone reductase of mouse adipose cell, differentiated ICR mouse visceral fat primary adipocytes, 100 nM [1,2-3H] cortisone, 37° C.
# Protocol: The adipose tissues adhered to the mesenterium and around the testicle of ten ICR male mice (9 to 11 weeks old, Japn SLC Inc.) (hereinafter, referred to as visceral fat tissue) were soaked in about 100 mL of a phospate buffer (0.20 g/L KCl, 0.20 g/L KH2PO4, 8.00 g/L NaCl, 2.16 g/L Na2HPO4.7H2O, 100 unit/ml penicillin (GIBCO), 100 μg/ml streptomycin (GIBCO), 250 ng/ml amphotericin (GIBCO)) and washed at room temperature.
# The excised visceral fat tissues was cut finely in about 5×5 mm with scissors in Dulbecco's modified Eagle medium (about 50 ml, containing 4.5 g/L D-glucose and 584 mg/L L-glutamine, GIBCO) to which collagenase (Type II, Sigma), penicillin (GIBCO), streptomycin (GIBCO) and amphotericin (GIBCO) were added in an amount so that the final concentrations thereof are adjusted to 1 mg/ml, 100 unit/ml, 100 μg/ml and 250 ng/ml, respectively. Then, the mixture was shaken at 37° C. for 30 minutes (about 170 rpm), filtered through nylon mesh (80S [the pore size: 250 μm], SANSHIN INDUSTRIAL CO., LTD.), and the filtrate (cell suspension) was collected. […]
# The cells in the cell suspension were counted with a counting chamber, and the cell suspension was diluted with the FBS-containing medium so that the concentration of the cell was adjusted to 1.4×10^5 cells/ml. […]
# [2] = biological target: cortisone reductase of human adipose cell (11βHSD1) (Homo sapiens, UniProt P28845); assay: Inhibitory activity assay against cortisone reductase activity of cultured human adipocytes; settings: read-out: IC50 against cortisone reductase of human adipose cell, differentiated normal human preadipocytes (HPrAD-vis), 100 nM [1,2-3H] cortisone, 37° C.
# Protocol: Normal human preadipocytes (HPrAD-vis, manufactured by Cambrex corporation) were inoculated onto a 48-well cell culture plate, and the differentiation induction was carried out according to Protocol attached to the kit. The medium for the cells on the 9-11 days of the differentiation was changed to D-MEM medium (0.2 ml; manufactured by GIBCO) containing 100 nM [1,2-^3H] cortisone (1 μCi/well, manufactured by Muromachi Yakuhin), 0.5% DMSO, a test compound (for test compound treated group, or DMSO only for the no-test compound treated group). The plate was incubated at 37° C. for 3 hours, and then the whole medium was collected. As a background group, the medium without cell was used. The medium was mixed with ethyl acetate (0.1 ml) in an Eppendorf tube. This mixture was voltexed, and then further centrifuged at 5,000 rpm for one minute at room temperature to separate the ethyl acetate layer (the upper layer). […] After the exposure was completed, the imaging plate was analyzed by Bioimage Analyzer (BAS2500, Fujifilm) and the [^3H] radioactivity on the part corresponding to the position of cortisol developed on the TLC plate. The inhibitory activity of a test compound against cortisone reductase was calculated according to the following equation. […]
IC50 [1] [nM],IC50 [2] [nM],SMILES
< 3,,Cc1cccc(N2CCC(O[C@H]3C[C@H]4CC[C@@H](C3)N4C(=O)N[C@H]3C4CC5CC3C[C@](O)(C5)C4)CC2)n1
,12,O=C(N[C@H]1C2CC3CC1C[C@](O)(C3)C2)N1[C@@H]2CC[C@H]1C[C@@H](Oc1cccc(OCCF)c1)C2
